Reference: patent publication US12384813B2, “Polymer linked multimers of guanosine-3′, 5′-cyclic monophosphates” (MIRECA MEDICINES GMBH, priority 2016, dated 2025)

Molecular target: T1, PKG Iβ (Homo sapiens, UniProt Q13976)
T1 construct: made in house; host or cells: Sf9 cells
T1 sequence (Q13976 1-686 isoform Q13976-2): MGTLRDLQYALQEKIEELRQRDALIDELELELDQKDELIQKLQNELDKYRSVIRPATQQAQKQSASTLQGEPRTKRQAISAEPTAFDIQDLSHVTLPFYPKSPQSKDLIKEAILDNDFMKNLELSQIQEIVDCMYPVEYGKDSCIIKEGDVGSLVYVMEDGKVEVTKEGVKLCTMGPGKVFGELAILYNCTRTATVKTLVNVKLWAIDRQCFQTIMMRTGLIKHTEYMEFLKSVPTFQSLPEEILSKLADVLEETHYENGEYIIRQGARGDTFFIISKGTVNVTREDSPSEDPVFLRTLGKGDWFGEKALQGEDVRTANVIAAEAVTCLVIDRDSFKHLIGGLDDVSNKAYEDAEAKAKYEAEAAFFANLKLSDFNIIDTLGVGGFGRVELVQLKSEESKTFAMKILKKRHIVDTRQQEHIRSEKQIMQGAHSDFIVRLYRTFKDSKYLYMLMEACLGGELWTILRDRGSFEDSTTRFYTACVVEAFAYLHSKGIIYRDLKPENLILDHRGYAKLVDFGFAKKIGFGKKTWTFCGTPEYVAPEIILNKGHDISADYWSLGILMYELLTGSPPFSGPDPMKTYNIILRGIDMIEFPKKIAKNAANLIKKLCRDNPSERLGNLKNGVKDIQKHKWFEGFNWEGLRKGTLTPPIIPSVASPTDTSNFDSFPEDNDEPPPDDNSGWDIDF
Experiment: In vitro activation of PKG Iβ, ADP-Glo Kinase Assay (luminescence), VASPtide substrate
Assay type: biochemical
Conditions: PKG Iβ 0.15 nM, room temperature, 60 min; measurable up to 2832-fold

O=c1c2nc(SCCn3cc(COCCOCCOCCOCCOCCOCCOCc4cn(CCSc5nc6c(=O)n7cc(-c8ccccc8)[nH]c7nc6n5[C@@H]5OC6CO[PH](O)(O)O[C@H]6C5O)nn4)nn3)n([C@@H]3OC4CO[PH](O)(O)O[C@H]4C3O)c2nc2[nH]c(-c3ccccc3)cn12 (stereo partly drawn) [compound 23, β-Phenyl-1,N^2-ethenoguanosine-3′,5′-cyclic monophosphate-[8-thioethyl-(1-[1,2,3]-triazole-4-yl)-methoxy-(hexaethoxy)-methyl-(4-[1,2,3]-triazole-1-yl)-ethylthio-8]-β-phenyl-1,N^2-ethenoguanosine-3′,5′-cyclic monophosphate]
relative PKG Iβ activation compared to cGMP (cGMP set as 1): ≥ 2832 fold
